Measured values from US7632645B1, “EGF receptor transactivation by G-protein-coupled receptors requires metalloproteinase cleavage of proHB-EGF” (Max-Planck-Gesellschaft zur forderung der Wissenschaften …, priority 1999, dated 2009).

Sequences of proteins named here, by UniProt entry; tags and fusion partners are left off. A change or cut given only in a name is not applied to a line headed by its entry.
UniProt P09619: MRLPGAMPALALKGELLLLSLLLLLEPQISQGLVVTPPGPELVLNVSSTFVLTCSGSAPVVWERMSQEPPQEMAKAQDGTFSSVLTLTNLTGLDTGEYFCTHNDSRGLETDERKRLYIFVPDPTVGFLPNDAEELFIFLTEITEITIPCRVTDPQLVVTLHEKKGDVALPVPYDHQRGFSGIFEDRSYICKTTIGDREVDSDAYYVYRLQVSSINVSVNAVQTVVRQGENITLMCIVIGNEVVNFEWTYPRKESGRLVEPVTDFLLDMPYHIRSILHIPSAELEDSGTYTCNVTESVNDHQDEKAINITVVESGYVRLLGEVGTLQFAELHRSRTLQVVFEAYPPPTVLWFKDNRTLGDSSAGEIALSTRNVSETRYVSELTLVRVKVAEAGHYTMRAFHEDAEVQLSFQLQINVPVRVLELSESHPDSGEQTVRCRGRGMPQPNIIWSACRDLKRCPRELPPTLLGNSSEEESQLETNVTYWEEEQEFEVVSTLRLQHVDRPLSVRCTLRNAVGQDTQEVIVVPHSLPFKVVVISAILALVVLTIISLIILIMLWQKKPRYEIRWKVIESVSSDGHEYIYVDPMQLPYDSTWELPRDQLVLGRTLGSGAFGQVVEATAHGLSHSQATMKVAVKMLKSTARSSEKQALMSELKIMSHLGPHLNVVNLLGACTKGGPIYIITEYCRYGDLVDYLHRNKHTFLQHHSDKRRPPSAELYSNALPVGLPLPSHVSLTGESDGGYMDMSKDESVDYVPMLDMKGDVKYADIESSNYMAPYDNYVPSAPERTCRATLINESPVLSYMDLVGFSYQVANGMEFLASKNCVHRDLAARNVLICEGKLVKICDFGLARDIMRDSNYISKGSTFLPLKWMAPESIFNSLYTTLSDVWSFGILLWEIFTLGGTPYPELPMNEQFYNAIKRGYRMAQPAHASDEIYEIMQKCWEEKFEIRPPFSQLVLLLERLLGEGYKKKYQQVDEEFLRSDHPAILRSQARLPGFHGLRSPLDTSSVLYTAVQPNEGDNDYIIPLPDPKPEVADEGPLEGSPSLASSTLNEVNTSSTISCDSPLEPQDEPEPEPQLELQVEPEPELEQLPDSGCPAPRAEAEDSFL

Target: T1, EP-R chimera (EGFR extracellular, PDGFR transmembrane and cytoplasmic signalling domain) (Homo sapiens, UniProt P00533+P09619)
T1 construct: the platelet-derived growth-factor receptor (PDGFR) transmembrane and cytoplasmic signalling domain; human EGFR extracellular domain (fusion partner); expressed in transfected cells
Experiment: Tyrosine phosphorylation of EP-R chimera in Rat-1/EP-R cells (immunoprecipitation with mAb 108.1, αPY immunoblot)
Assay type: cell-based
Conditions: tyrphostin (AG1478 250 nM, AG1295 1 μM) added 15 minutes before thrombin 2 U/ml, FIG. 1b

COc1cc2ncnc(Nc3cccc(Cl)c3)c2cc1OC [AG1478]
effect on thrombin-induced tyrosine phosphorylation of the chimeric receptor EP-R: but not
